Each block holds one substance with its values, some of them ahead of it.
What was measured:
[1] = test system: normal human protein C (recombinant zymogen)
[2] = biological target: PC variant Fpa-SIG (human) (UniProt P04070); assay: cell-based or functional assay
[3] = biological target: PC variant Fpa-LFG (human) (UniProt P04070); assay: cell-based or functional assay
[4] = biological target: FX variant FpA-AFG (human) (UniProt P00742); assay: cell-based or functional assay
[5] = biological target: PC variant Fpa-LID (activation peptide replaced with …, native P1'-P3' LID) (human) (UniProt P04070); assay: cell-based or functional assay
[6] = biological target: PC variant Fpa-AIG (human) (UniProt P04070); assay: cell-based or functional assay
[7] = test system: PC variant ΔDTEDQED (first 7 residues of the activation peptide deleted)
[8] = test system: PC variant Fpa-LID (activation peptide replaced with DFLAEGGGVR, native P1'-P3' LID)
[9] = test system: FX variant FpA-IVG (activation peptide replaced with DFLAEGGGVR, native P1'-P3' IVG)

Substance: thrombin in the presence of thrombomodulin
- kon (specificity constant) of activation by thrombin in the presence of thrombomodulin [1]: 500000 M⁻¹ s⁻¹

- fold increase of kon against normal PC [2]: 500 fold
- fold increase of kon against normal PC [3]: 96 fold
- fold increase of kon against FpA-IVG [4]: 625 fold
- fold increase of kon against normal PC [5]: 40 fold
- fold increase of kon against normal PC [6]: 100 fold
Substance: thrombin (from UniProt P00734 328-622) (enzyme)

Substance: thrombin
- activation rate against normal PC [7]: 2 fold
- kon (specificity constant) of activation by thrombin [7]: 600 M⁻¹ s⁻¹
- kon (specificity constant) of activation by thrombin (PC variant Fpa-LFG): 29000 M⁻¹ s⁻¹
- activation rate constant [8]: an activation rate constant of 2×10^4M^-1s^-1
- kon (specificity constant) of activation by thrombin [8]: 11000 M⁻¹ s⁻¹
- fold increase of the activation rate against FpA-IVG (FX variant FpA-AVG): this rate increases 5.5-fold
- kon (specificity constant) of activation by thrombin (FX variant FpA-AVG): 2200 M⁻¹ s⁻¹
- gain in activation rate against the PC derivative carrying only FpA (Fpa-LID) (PC variant Fpa-SIG): more than 10-fold
- kon (specificity constant) of activation by thrombin (PC variant Fpa-SIG): 160000 M⁻¹ s⁻¹
- gain in activation rate against the mutant carrying FpA and D18G (Fpa-LIG) (PC variant Fpa-AIG): approximately 2-fold
- kon (specificity constant) of activation by thrombin (PC variant Fpa-AIG): 30000 M⁻¹ s⁻¹
- gain in activation rate from the D18G mutation (against Fpa-LID) (PC variant Fpa-LIG): only 1.6-fold
- kon (specificity constant) of activation by thrombin (PC variant Fpa-LIG): 16000 M⁻¹ s⁻¹
- kon (specificity constant) of activation by thrombin (FX variant FpA-AFG): 240000 M⁻¹ s⁻¹
- kon (specificity constant) of activation by thrombin [1]: 300 M⁻¹ s⁻¹
- fold increase of the activation rate against FpA-IVG (FX variant FpA-IFG): increases this rate 7.5-fold
- kon (specificity constant) of activation by thrombin (FX variant FpA-IFG): 3000 M⁻¹ s⁻¹
- kon (specificity constant) of activation by thrombin [9]: 400 M⁻¹ s⁻¹
